Test results from ChEMBL document CHEMBL5214996, “Design, Synthesis, and Pharmacological Evaluation of Second-Generation Soluble Adenylyl Cyclase (sAC, ADCY10) Inhibitors with Slow Dissociation Rates” (J Med Chem, 2022).

The chains behind the UniProt entries cited, without tags or fusion partners. Where a name states a change or a piece, a line headed by the entry shows the natural chain unless it says otherwise.
UniProt Q96PN6: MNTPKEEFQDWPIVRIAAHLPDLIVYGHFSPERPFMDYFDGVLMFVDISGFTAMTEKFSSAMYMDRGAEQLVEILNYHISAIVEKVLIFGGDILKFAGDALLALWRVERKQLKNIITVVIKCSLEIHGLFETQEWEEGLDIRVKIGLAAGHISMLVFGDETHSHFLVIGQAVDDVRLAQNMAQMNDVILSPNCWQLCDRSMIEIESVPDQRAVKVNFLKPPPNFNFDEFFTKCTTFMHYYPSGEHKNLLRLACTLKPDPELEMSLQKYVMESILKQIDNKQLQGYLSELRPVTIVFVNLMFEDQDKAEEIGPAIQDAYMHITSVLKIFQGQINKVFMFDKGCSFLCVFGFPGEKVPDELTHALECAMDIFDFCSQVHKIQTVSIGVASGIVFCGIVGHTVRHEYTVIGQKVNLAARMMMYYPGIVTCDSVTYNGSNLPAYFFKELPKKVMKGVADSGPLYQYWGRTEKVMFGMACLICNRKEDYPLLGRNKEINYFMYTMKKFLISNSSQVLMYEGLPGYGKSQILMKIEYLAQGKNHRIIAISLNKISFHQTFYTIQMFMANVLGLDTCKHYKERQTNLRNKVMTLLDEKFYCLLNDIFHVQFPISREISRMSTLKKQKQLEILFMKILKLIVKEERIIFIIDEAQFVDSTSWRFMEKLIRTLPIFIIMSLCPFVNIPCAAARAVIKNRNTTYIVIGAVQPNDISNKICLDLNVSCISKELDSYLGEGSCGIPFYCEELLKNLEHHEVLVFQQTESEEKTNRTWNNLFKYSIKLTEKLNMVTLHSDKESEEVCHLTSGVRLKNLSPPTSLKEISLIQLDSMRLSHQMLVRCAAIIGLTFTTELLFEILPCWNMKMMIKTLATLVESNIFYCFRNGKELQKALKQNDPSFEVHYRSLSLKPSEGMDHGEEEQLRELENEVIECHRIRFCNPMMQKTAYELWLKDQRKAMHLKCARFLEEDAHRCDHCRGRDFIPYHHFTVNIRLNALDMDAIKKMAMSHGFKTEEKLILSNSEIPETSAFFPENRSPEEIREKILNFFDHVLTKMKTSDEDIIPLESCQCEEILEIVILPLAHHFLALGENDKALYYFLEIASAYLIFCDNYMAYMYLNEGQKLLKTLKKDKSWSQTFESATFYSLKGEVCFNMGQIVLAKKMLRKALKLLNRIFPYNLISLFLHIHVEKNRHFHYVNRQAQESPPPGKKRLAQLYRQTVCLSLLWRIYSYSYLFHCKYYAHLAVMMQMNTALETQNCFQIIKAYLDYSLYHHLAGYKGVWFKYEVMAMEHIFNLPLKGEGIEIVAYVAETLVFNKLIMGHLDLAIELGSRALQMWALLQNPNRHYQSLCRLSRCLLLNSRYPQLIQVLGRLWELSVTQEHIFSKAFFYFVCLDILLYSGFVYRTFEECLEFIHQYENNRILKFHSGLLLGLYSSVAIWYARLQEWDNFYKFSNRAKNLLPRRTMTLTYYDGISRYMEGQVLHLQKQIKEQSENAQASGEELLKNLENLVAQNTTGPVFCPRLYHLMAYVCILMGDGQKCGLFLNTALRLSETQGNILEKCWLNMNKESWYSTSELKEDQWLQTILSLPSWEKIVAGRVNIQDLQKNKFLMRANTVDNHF

Target: Adenylate cyclase type 10 (Homo sapiens, UniProt Q96PN6)
Details: dose 500.0 µM, time 15.0 min

| inhibition [%] | Structure (SMILES) |
| --- | --- |
| 70 | Nc1nc(Cl)cc(-c2n[nH]cc2Cc2ccccc2)n1 |
| 75 | CN(C)C(=O)c1ccccc1Cc1cn(C)nc1-c1cc(Cl)nc(N)n1 |
